In one assay the test system is OCI-LY10 cells. The assay can be described thus: Inhibitory activity against OCI-LY10 cell proliferation (CCK-8). To be noted: 72 h incubation. The method, then:
OCI-LY10 cells in a good growth state were collected into a centrifuge tube, adjusted to a cell density of 9 × 10^4 cells/mL using an assay medium (1640 + 10% FBS), and seeded onto a 96-well plate (100 µL/well). The cells were incubated overnight in a cell incubator. Compounds were added using a nanoliter pipettor such that the final concentrations of the compounds were 1000 nM to 1.64 nM (the addition was performed in duplicate). Meanwhile, a control was set. After 72 h of incubation in the cell incubator, the assay reagent CCK-8 (manufacturer: Dojindo Laboratories; 10 µL/well) was added. After 4 h of incubation in the cell incubator, the absorbance values were measured at 450 nm on a PerkinElmer Envision microplate reader. A four-parameter analysis was performed, a dose-response curve was fitted, and IC50 was calculated. Table 1. Inhibitory activity against OCI-LY10 cell proliferation

Sequences of proteins named here, by UniProt entry; tags and fusion partners are left off. A change or cut given only in a name is not applied to a line headed by its entry.
UniProt Q06187, whole entry: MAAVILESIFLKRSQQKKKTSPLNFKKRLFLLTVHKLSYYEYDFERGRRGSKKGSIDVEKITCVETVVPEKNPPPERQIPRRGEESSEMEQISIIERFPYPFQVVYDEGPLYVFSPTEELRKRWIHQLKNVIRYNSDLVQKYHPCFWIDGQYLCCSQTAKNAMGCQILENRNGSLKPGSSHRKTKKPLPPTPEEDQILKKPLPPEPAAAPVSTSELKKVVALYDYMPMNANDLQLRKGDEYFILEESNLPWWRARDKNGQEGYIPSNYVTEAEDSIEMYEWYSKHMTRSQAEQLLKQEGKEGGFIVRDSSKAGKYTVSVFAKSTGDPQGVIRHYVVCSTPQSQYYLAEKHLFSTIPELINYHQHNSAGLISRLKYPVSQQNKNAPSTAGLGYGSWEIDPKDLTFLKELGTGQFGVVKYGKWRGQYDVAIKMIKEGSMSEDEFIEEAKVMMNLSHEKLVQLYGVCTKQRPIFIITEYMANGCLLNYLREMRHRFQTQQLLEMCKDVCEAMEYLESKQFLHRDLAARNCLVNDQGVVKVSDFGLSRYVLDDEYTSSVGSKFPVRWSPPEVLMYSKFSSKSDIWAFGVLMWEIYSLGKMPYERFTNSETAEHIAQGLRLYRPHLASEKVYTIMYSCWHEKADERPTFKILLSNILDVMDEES
UniProt Q06187, whole entry C481S: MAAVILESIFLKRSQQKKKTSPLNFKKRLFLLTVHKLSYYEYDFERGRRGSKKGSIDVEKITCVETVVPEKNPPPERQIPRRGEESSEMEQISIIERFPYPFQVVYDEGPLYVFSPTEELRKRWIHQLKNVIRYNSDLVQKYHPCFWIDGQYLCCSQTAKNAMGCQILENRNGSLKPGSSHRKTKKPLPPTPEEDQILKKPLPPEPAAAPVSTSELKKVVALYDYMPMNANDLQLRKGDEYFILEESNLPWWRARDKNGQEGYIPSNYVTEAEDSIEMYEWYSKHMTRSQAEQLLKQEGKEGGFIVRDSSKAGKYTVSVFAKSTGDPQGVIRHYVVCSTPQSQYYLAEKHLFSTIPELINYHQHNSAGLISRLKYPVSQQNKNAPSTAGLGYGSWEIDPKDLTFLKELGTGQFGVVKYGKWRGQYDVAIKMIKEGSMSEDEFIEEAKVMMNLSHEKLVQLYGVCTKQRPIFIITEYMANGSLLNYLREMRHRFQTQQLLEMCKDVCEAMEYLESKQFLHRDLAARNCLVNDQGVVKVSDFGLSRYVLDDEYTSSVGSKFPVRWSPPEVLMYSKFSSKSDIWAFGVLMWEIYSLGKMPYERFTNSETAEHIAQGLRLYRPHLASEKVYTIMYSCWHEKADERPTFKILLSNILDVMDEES

In a further assay the target is BTK(WT) kinase (Homo sapiens, UniProt Q06187). Put plainly: Inhibitory activity against BTK(WT) kinase. Particulars: read-out: BTK(WT) kinase inhibition IC50(nM ). The method, then:
(§1) BTK kinase solution (concentration: 0.003 ng/µL) was added to assay wells at 6 µL/well, and different compounds dissolved in DMSO were added to the assay wells separately using a nanoliter pipettor, such that the final concentrations of the compounds were 1000 nM to 0.244 nM. The wells were set in duplicate, and a control well was set. After a 30-min incubation of the above system, ATP (concentration: 50 µM) was mixed with ULight-poly GT substrate (manufacturer: PerkinElmer, concentration: 0.5 µM) in a ratio of 1:1, and the mixture was added to the assay wells at 4 µL/well. The resulting mixture was left to react at room temperature for 2 h, and then 5 µL of EDTA was added to terminate the reaction, followed by the addition of 5 µL of a detection antibody (manufacturer: PerkinElmer, concentration: 8 nM). The mixture was incubated at room temperature for 1 h. The assay was performed using a PerkinElmer Envision multifunctional microplate reader (excitation: 320 nm, emission: 615 nm/665 nm), and IC50 was calculated by four-parameter fitting.

The target in another assay is BTK(C481S) kinase (Homo sapiens, UniProt Q06187, C481S). Put plainly: Inhibitory activity against BTK(C481S) kinase. To be noted: read-out: BTK(C481S) kinase inhibition IC50(nM ). The method, then: as §1, with “BTK(C481S)” for “BTK”, “0.006” for “0.003”, “fitting. The test results are shown in Table 3, where A represents: the IC50 value ≤ 10 nM.” for “fitting.”

Broadly, the IC50 is the midpoint of a concentration-inhibition curve. Compound `CCC(OC1CC1)c1nc(Nc2cnn(-c3ccc(CNc4nc(C)cc5c(F)ccc(OC)c45)cc3)c2C(N)=O)ccc1N1CCN(C2COC2)CC1` (racemic) came in with a 50% inhibitory concentration (IC50) in the assay with OCI-LY10 cells of less than 0.01 µM.
`COC(c1nc(Nc2cnn(-c3ccc(CNC(=O)c4cc(F)cc5cccnc45)cc3)c2C(N)=O)ccc1N1CCN(C2COC2)CC1)C1CC1` (stereo not shown): in the assay with OCI-LY10 cells, the IC50 was less than 0.01 µM.
As to `[2H]C([2H])([2H])OCCN1CCN(c2ccc(Nc3cnn(-c4ccc(CNc5nccc6c(F)ccc(OC)c56)cc4)c3C(N)=O)nc2C(C)OC([2H])([2H])[2H])CC1` (stereo not shown), the IC50 in the assay with OCI-LY10 cells is less than 0.01 µM; at BTK(WT) kinase it was less than 10 nM; at BTK(C481S) kinase, less than 10 nM.
Regarding `C=CCCC(O)c1nc(Nc2cnn(-c3ccc(CNc4nccc5c(F)ccc(OC)c45)cc3)c2C(N)=O)ccc1N1CCN(C)CC1` (stereo not shown), in the assay on OCI-LY10 cells, the half-maximal inhibitory concentration (IC50) is less than 0.01 µM.
Consider `COCCN1CCN(c2ccc(Nc3cnn(-c4ccc(CNC(=O)c5cc(F)cc6cccnc56)cc4)c3C(N)=O)nc2C(O)C(F)F)CC1` (single isomer, unassigned), for which the half-inhibitory concentration (IC50) in the assay on OCI-LY10 cells is less than 0.01 µM; on BTK(WT) kinase, less than 10 nM; on BTK(C481S) kinase it was less than 10 nM.
Consider `COC(c1nc(Nc2cnn(-c3ccc(CNC(=O)c4cc(F)cc5cccnc45)cc3)c2C(N)=O)ccc1N1CCN(C2COC2)CC1)C(F)(F)F` (stereo not shown), for which the IC50 with OCI-LY10 cells was less than 0.01 µM; at BTK(WT) kinase, less than 10 nM; on BTK(C481S) kinase, less than 10 nM.
As for `COc1ccc(F)c2ccnc(NCc3ccc(-n4ncc(Nc5ccc(N6CCN(C)CC6)c(C(OC)C6CC6)n5)c4C(N)=O)cc3)c12` (stereo not shown), the IC50 in the assay on OCI-LY10 cells was less than 0.01 µM.
Still for that read-out and setting: as for `CCC(OC)c1nc(Nc2cnn(-c3ccc(CNc4nccc5c(F)ccc(OC)c45)cc3)c2C(N)=O)ccc1N1CCN(C2COC2)CC1` (stereo not shown), the figure is less than 0.01 µM.
For `CCC(OC)c1nc(Nc2cnn(-c3ccc(CNC(=O)c4cc(F)cc5cccnc45)cc3)c2C(N)=O)ccc1NC1CCC(N(C)C)CC1` (stereo not shown), the concentration for half-maximal inhibition (IC50) in the assay with OCI-LY10 cells is less than 0.01 µM; on BTK(WT) kinase it was less than 10 nM; on BTK(C481S) kinase, less than 10 nM.
Consider `COc1ccc(F)c2ccnc(NCc3ccc(-n4ncc(Nc5ccc(N6CCN(C7COC7)CC6)c(C(O)C(F)(F)F)n5)c4C(N)=O)cc3)c12` (racemic), for which the IC50 at BTK(WT) kinase and on BTK(C481S) kinase was less than 10 nM in each case.
Take `COCCN1CCN(c2ccc(Nc3cnn(-c4ccc(CNc5nccc6c(F)ccc(OC)c56)cc4)c3C(N)=O)nc2C(OC)C2CC2)CC1` (single isomer, unassigned): the IC50 in the assay on OCI-LY10 cells is less than 0.01 µM.
For `COCCN1CCN(c2ccc(Nc3cnn(-c4ccc(CNc5nc(C)cc6c(F)ccc(OC)c56)cc4)c3C(N)=O)nc2C(C)OC)CC1` (stereo not shown), the results for the half-inhibitory concentration (IC50) with OCI-LY10 cells, at BTK(WT) kinase and at BTK(C481S) kinase were less than 0.01 µM, less than 10 nM and less than 10 nM, respectively.
The compound `NC(=O)c1c(Nc2ccc(C3CCN(C4COC4)CC3)c(C(O)C3CC3)n2)cnn1-c1ccc(CNC(=O)c2cc(F)cc3cccnc23)cc1` (stereo not shown) gave an IC50 in the assay with OCI-LY10 cells of less than 0.01 µM.
Still for that read-out and setting: as for `[2H]C([2H])([2H])OC(c1nc(Nc2cnn(-c3ccc(CNC(=O)c4cc(F)cc5cccnc45)cc3)c2C(N)=O)ccc1N1CCN(C2CC2)CC1)C1CC1` (stereo not shown), the figure is less than 0.01 µM.
With `C[C@@H]1CN(C2COC2)CCN1c1ccc(Nc2cnn(-c3ccc(CNC(=O)c4cc(F)cc5cccnc45)cc3)c2C(N)=O)nc1C(O)C(F)(F)F` (single isomer, unassigned), the IC50 is less than 0.01 µM in the assay on OCI-LY10 cells, less than 10 nM on BTK(WT) kinase and less than 10 nM at BTK(C481S) kinase.
Take `COCCN1CCN(c2ccc(Nc3cnn(-c4ccc(CNc5nccc6c(F)ccc(OC)c56)cc4)c3C(N)=O)nc2C(O)C(F)F)CC1` (racemic): the values for the IC50 in the assay with OCI-LY10 cells, at BTK(WT) kinase and on BTK(C481S) kinase were less than 0.01 µM, less than 10 nM and less than 10 nM, respectively.
For the compound `COCCN1CCN(c2ccc(Nc3cnn(-c4ccc(CNC(=O)c5cc(F)cc6cccnc56)cc4)c3C(N)=O)nc2C(C)O)[C@@H](C)C1` (stereo partly shown), the half-inhibitory concentration (IC50) in the assay on OCI-LY10 cells is less than 0.01 µM.
Take `COCCN1CCN(c2ccc(Nc3cnn(-c4ccc(CNc5nccc6c(F)ccc(OC)c56)cc4)c3C(N)=O)nc2C(O)C(F)(F)F)CC1` (single isomer, unassigned): the concentration for half-maximal inhibition (IC50) in the assay with OCI-LY10 cells was less than 0.01 µM.
For the compound `COc1ccc(F)c2ccnc(NCc3ccc(-n4ncc(Nc5ccc(N6CCN(C)CC6)c(C(O)C(F)(F)F)n5)c4C(N)=O)cc3)c12` (racemic), the concentration for half-maximal inhibition (IC50) on BTK(WT) kinase and at BTK(C481S) kinase was less than 10 nM each time.
In the case of `COc1ccc(F)c2ccnc(NCc3ccc(-n4ncc(Nc5ccc(N6CCN(C)CC6)c(C(O)C(F)(F)F)n5)c4C(N)=O)cc3)c12` (single isomer, unassigned), in the assay on OCI-LY10 cells, the IC50 was less than 0.01 µM.
The same measure, in the same setting: as for `COCCN1CCN(c2ccc(Nc3cnn(-c4ccc(CNC(=O)c5cc(F)cc6cccnc56)cc4)c3C(N)=O)nc2C(OC)C2CC2)CC1` (stereo not shown), the figure is less than 0.01 µM.
Turning to `CN1CCN(c2ccc(Nc3cnn(-c4ccc(CNC(=O)c5cc(F)cc6cccnc56)cc4)c3C(N)=O)nc2)CC1`, the half-maximal inhibitory concentration (IC50) on BTK(WT) kinase and on BTK(C481S) kinase was less than 10 nM throughout.
For the compound `COc1ccc(F)c2cc(C)nc(NCc3ccc(-n4ncc(Nc5ccc(NC6CCC(N(C)C)CC6)cn5)c4C(N)=O)cc3)c12` (single isomer, unassigned), the half-inhibitory concentration (IC50) at BTK(WT) kinase and at BTK(C481S) kinase was less than 10 nM throughout.
In turn, `COC(c1nc(Nc2cnn(-c3ccc(CNC(=O)c4cc(F)cc5cccnc45)cc3)c2C(N)=O)ccc1N1CCN(C)CC1)C1CC1` (stereo not shown) came in with a concentration for half-maximal inhibition (IC50) with OCI-LY10 cells of less than 0.01 µM.
The same measure, in the same setting: as for `CN1CCN(c2ccc(Nc3cnn(-c4ccc(CNC(=O)c5cc(F)cc6cccnc56)cc4)c3C(N)=O)nc2C(O)C2CC2)CC1` (single isomer, unassigned), the figure is less than 0.01 µM; as for `CCC(O)c1nc(Nc2cnn(-c3ccc(CNC(=O)c4cc(F)cc5cccnc45)cc3)c2C(N)=O)ccc1N1CCN(C2COC2)CC1` (single isomer, unassigned), less than 0.01 µM.
On to `COc1ccc(F)c2cc(C)nc(NCc3ccc(-n4ncc(Nc5ccc(N6CCN(C7COC7)CC6)c(C(O)C(F)(F)F)n5)c4C(N)=O)cc3)c12` (single isomer, unassigned), for which, in the assay with OCI-LY10 cells, the IC50 is less than 0.01 µM.
Still for that read-out and setting: as for `COc1ccc(F)c2ccnc(NCc3ccc(-n4ncc(Nc5ccc(C6CCN(C7COC7)CC6)c(C(O)C6CC6)n5)c4C(N)=O)cc3)c12` (stereo not shown), the figure is less than 0.01 µM; as for `COc1ccc(F)c2cc(C)nc(NCc3ccc(-n4ncc(Nc5ccc(N6CCN(C7COC7)CC6)c(C(O)C6CC6)n5)c4C(N)=O)cc3)c12` (stereo not shown), less than 0.01 µM.
As to `COCCN1CCN(c2ccc(Nc3cnn(-c4ccc(CNC(=O)c5cc(F)cc6cccnc56)cc4)c3C(N)=O)nc2C(C)O)CC1` (racemic), the IC50 on BTK(WT) kinase and on BTK(C481S) kinase was less than 10 nM throughout.
`COc1ccc(F)c2ccnc(NCc3ccc(-n4ncc(Nc5ccc(N6CCC(N(C)C)CC6)c(C(OC)C6CC6)n5)c4C(N)=O)cc3)c12` (single isomer, unassigned): the half-maximal inhibitory concentration (IC50) with OCI-LY10 cells is less than 0.01 µM.
On the same count and under the same terms, as for `COCCN1CCC(c2ccc(Nc3cnn(-c4ccc(CNc5nccc6c(F)ccc(OC)c56)cc4)c3C(N)=O)nc2C(C)O)CC1` (single isomer, unassigned), the figure is less than 0.01 µM; as for `COCCN1CCN(c2ccc(Nc3cnn(-c4ccc(CNc5nccc6c(F)ccc(OC)c56)cc4)c3C(N)=O)nc2C(OC)C2CC2)CC1` (racemic), less than 0.01 µM.
Consider `COCCN1CCN(c2ccc(Nc3cnn(-c4ccc(CNc5nc(C)cc6c(F)ccc(OC)c56)cc4)c3C(N)=O)nc2C(O)C(F)(F)F)CC1` (stereo not shown), for which the concentration for half-maximal inhibition (IC50) at BTK(WT) kinase and at BTK(C481S) kinase was less than 10 nM each time.
As for `COc1ccc(F)c2ccnc(NCc3ccc(-n4ncc(Nc5ccc(NC6CCC(N(C)C)CC6)cn5)c4C(N)=O)cc3)c12` (stereo not shown), the half-maximal inhibitory concentration (IC50) at BTK(WT) kinase and on BTK(C481S) kinase was less than 10 nM each time.
`COCCN1CCN(c2ccc(Nc3cnn(-c4ccc(CNC(=O)c5cc(F)cc6cccnc56)cc4)c3C(N)=O)nc2C(C)O)CC1` (single isomer, unassigned): in the assay on OCI-LY10 cells, the IC50 was less than 0.01 µM.
As for `CN1CCN(c2ccc(Nc3cnn(-c4ccc(CNC(=O)c5cc(F)cc6cccnc56)cc4)c3C(N)=O)cc2)CC1`, the IC50 on BTK(WT) kinase and at BTK(C481S) kinase was less than 10 nM throughout.
As to `CCC(OC)c1nc(Nc2cnn(-c3ccc(CNC(=O)c4cc(F)cc5cccnc45)cc3)c2C(N)=O)ccc1N1CCN(C2COC2)CC1` (stereo not shown), in the assay with OCI-LY10 cells, the IC50 is less than 0.01 µM.
The compound `COCCN1CCN(c2ccc(Nc3cnn(-c4ccc(CNC(=O)c5cc(F)cc6cccnc56)cc4)c3C(N)=O)nc2C(O)C(F)F)CC1` (racemic) displayed an IC50 in the assay with OCI-LY10 cells of less than 0.01 µM.

For the origin of these results see EP4825855A1, “COMPOUND CONTAINING PYRAZOLE RING AND BICYCLIC HETEROARYL GROUP, PHARMACEUTICAL COMPOSITION THEREOF AND USE THEREOF” (dated 2026).
